Test results as given in ChEMBL document CHEMBL1268842, “Discovery of N-benzyl-2-[(4S)-4-(1H-indol-3-ylmethyl)-5-oxo-1-phenyl-4,5-dihydro-6H-[1,2,4]triazolo[4,3-a][1,5]benzodiazepin-6-yl]-N-isopropylacetamide, an orally active, gut-selective CCK1 receptor agonist for the potential treatment of obesity” (Bioorg Med Chem Lett, 2010).

The chains behind the UniProt entries cited, without tags or fusion partners.
UniProt P30551, whole entry: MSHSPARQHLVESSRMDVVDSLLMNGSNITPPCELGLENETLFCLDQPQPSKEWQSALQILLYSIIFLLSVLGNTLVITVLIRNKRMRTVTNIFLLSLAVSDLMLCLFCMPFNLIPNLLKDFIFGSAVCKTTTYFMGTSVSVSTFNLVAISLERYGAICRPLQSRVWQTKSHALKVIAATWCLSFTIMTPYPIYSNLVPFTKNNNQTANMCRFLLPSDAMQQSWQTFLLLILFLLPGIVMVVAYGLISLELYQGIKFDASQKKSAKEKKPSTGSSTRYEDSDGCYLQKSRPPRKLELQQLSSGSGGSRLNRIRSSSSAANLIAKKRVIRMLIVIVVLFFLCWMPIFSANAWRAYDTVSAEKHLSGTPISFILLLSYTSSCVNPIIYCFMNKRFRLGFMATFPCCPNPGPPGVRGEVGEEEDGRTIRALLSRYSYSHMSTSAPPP

Tests used:
[1] = molecular target: T1, Cholecystokinin receptor type A (Rattus norvegicus, UniProt P30551); assay: Displacement of [125I]CCK8 from rat CCK1 receptor expressed in CHO cells; format: cell-based
Method in brief: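 Binding IC50 at the rat CCK1 receptor. Values are mean ± standard error of at least two independent experiments.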

[2] = molecular target: T1, Cholecystokinin receptor type A; assay: Agonist activity at rat CCK1 receptor expressed in CHO cells assessed as induction of calcium release by FLIPR assay; format: functional, cell-based
Method in brief: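 Calcium release was measured by FLIPR at the rat CCK1 receptor to give EC50. Values are mean ± standard error of at least two independent experiments.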

`CC(C)N(Cc1ccccc1)C(=O)CN1C(=O)[C@@H](Cc2c[nH]c3ccccc23)c2nnc(-c3ccccc3)n2-c2ccccc21` [CE-326597] was tested, and the IC50 [1] was 12.2 nM and the EC50 [2] was 446 nM.
